# Source: PubChem BioAssay AID1053172 (The Scripps Research Institute Molecular Screening Center, 2014)
# Biological target: HIV-1 integrase / human LEDGF/p75 complex
# Assay: inhibitors of HIV-1 IN-LEDGF/p75 DNA integration, dose response, biochemical, TR-FRET (AID 1053172)
smiles,measurement,value
Oc1ccc(/C=N/NC(=S)Nc2cccnc2)c(O)c1O,IC50,804 nM
